In patent US7435438B1, “Disinfectant and method of use” (Pure BioScience, priority 2003, dated 2008):

How the values were obtained:
[1] = system: dermal lesions both contaminated and infected with gram negative and gram positive bacteria; settings: equine
[2] = system: total bacteria present; settings: after the 5 ppm / 0.1 ppm rinse

With silver dihydrogen citrate the “damage to tissue on irrigating deep wounds and abscesses” value [1] was “without damage to tissue” and the “Silver residuals detected on the produce” value [2] was “within allowable tolerances for food grade products”.
